Laboratory results published in patent US20220016023A1, “METHOD FOR TREATING MYOPIA AND APPLICATION IN PREPARATION OF MEDICAMENT” (WENZHOU MEDICAL UNIVERSITY, priority 2018, published 2022).

System: form deprivation myopia
Conditions: periocular injection of 0.1 ml of 10 μM prazosin, 2 weeks form deprivation; FDM+Vehicle 35.79; p<0.05; FIG. 6C

COc1cc2nc(N3CCN(C(=O)c4ccco4)CC3)nc(N)c2cc1OC [prazosin]
choroidal blood flow (ChBF signal points) of test eye: 37.01±6.26 ×10 3
